scFv variants of Ab-14 (heavy chain) against a SARS-CoV-2 spike peptide

Source: Engelhart et al. 2022 (doi:10.1038/s41597-022-01779-4), MIT Lincoln Laboratory and A-Alpha Bio; data file from the FLAb repository.

All variants were tested on one target, the spike HR2 peptide PDVDLGDISGINAS (SARS-CoV-2).

Parent: Ab-14, a human scFv built as VH, a (GGGGS)3 linker, VL. Only the CDRs of the heavy chain vary.
VH: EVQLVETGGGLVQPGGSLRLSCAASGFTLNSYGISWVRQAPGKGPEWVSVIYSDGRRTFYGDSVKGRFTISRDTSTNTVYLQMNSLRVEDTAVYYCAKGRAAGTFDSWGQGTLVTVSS
VL: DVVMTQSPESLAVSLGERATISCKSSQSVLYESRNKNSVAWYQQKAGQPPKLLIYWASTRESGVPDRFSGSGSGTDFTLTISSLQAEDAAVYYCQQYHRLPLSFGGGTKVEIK

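AAYL49 was designed without a model: most single CDR substitutions and a random sample of double and triple ones. AlphaSeq pools MATa yeast showing the antibodies with MATalpha yeast showing the peptide. The frequency of each diploid, read from paired DNA barcodes, reflects how well the two displayed proteins bind. Each replicate has its own calibration line, from reference interactions of the BCL2 family. Mating was done three times.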

Variants are written as CDR1, CDR2 and CDR3 of the heavy chain (limits as in the source). Parent: GFTLNSYGIS, VIYSDGRRTFYGDSVK, GRAAGTFDS.
Scale: log10 of Kd in nM, estimated from mating counts; low values are strong binders.
Where no diploid with the target was found in that replicate, the entry reads "nd": below detection, most likely a poor binder, though not proof of it.
Parent in this assay: reference entry 0.65, copy in this library 4.11 (one replicate of three).
Nonspecific signal, from three strains lacking the peptide, appeared in 15% of pairings of library AAYL49, centred on 4.06 (5% of these signals below 2.83); values are not corrected for it. Also given: how often the same scFv was detected with the empty control strains, with their mean in brackets.

{"CDR-H1": "GITLNSYGIS", "CDR-H2": "VIYSSGRRTFYGDSVK", "CDR-H3": "GRAAGSFDS", "log10 Kd, replicates": "3.22 nd nd", "control signals": "2/9 (3.81)"}
{"CDR-H1": "GFTLNSYGIS", "CDR-H2": "VIYSDGRRTFYGDSVT", "CDR-H3": "GRMYGTFDS", "log10 Kd, replicates": "1.05 2.42 1.37", "control signals": "1/9 (3.81)"}
{"CDR-H1": "GFTLNSYGIS", "CDR-H2": "VIYSDLRRTQYGDSVK", "CDR-H3": "GRALGTFDS", "log10 Kd, replicates": "nd nd nd", "control signals": "0/9"}
{"CDR-H1": "GFTLNSYLIS", "CDR-H2": "VIYSDGRRTFYGDSVH", "CDR-H3": "GSAAGTFDS", "log10 Kd, replicates": "nd 3.93 nd", "control signals": "1/9 (3.74)"}
{"CDR-H1": "GFTLNSYGIS", "CDR-H2": "VIYEDGRRTFYGDWVK", "CDR-H3": "YRAAGTFDS", "log10 Kd, replicates": "nd nd nd", "control signals": "0/9"}
{"CDR-H1": "YFTLNSYGIH", "CDR-H2": "VIPSDGRRTFYGDSVK", "CDR-H3": "GRAAGTFDS", "log10 Kd, replicates": "3.61 nd nd", "control signals": "1/9 (4.39)"}
{"CDR-H1": "GQTLNSYGIS", "CDR-H2": "AIYSDGRRTFYGDSVK", "CDR-H3": "GRAAGYFDS", "log10 Kd, replicates": "nd nd nd", "control signals": "2/9 (3.14)"}
{"CDR-H1": "GFTENSRGIS", "CDR-H2": "VIYSHGRRTFYGDSVK", "CDR-H3": "GRAAGTFDS", "log10 Kd, replicates": "nd 2.97 nd", "control signals": "2/9 (2.74)"}
{"CDR-H1": "GFTLNSYGIR", "CDR-H2": "VIYSDGRRFFYGDSVK", "CDR-H3": "YRAAGTFDS", "log10 Kd, replicates": "nd 3.88 nd", "control signals": "2/9 (4.32)"}
{"CDR-H1": "GFTLNSYGLS", "CDR-H2": "VIYSDGRRWFYGDSVK", "CDR-H3": "GRAAGTFDS", "log10 Kd, replicates": "nd nd nd", "control signals": "0/9"}
{"CDR-H1": "GATLNSYGIS", "CDR-H2": "VIYSDGRRTFEGDSGK", "CDR-H3": "GRAAGTFDS", "log10 Kd, replicates": "nd nd 3.63", "control signals": "0/9"}
{"CDR-H1": "LFWLNSYGIS", "CDR-H2": "EIYSDGRRTFYGDSVK", "CDR-H3": "GRAAGTFDS", "log10 Kd, replicates": "5.89 nd nd", "control signals": "1/9 (3.00)"}
{"CDR-H1": "GFTLNSYGIS", "CDR-H2": "TIYSIGRRTFYGDSVK", "CDR-H3": "GRAAGTFDS", "log10 Kd, replicates": "3.86 nd 5.45", "control signals": "5/9 (3.23)"}
{"CDR-H1": "GFTLNSYGIS", "CDR-H2": "VIYRDGVRTFYGDSVK", "CDR-H3": "FRAAGTFDS", "log10 Kd, replicates": "4.75 nd nd", "control signals": "0/9"}
{"CDR-H1": "GFLLNSYGIS", "CDR-H2": "VIYSDGRRTFYGDSVK", "CDR-H3": "GRAAKHFDS", "log10 Kd, replicates": "1.32 1.51 1.78", "control signals": "2/9 (4.56)"}
{"CDR-H1": "CFYLNSYGIS", "CDR-H2": "VIYSDGRREFYGDSVK", "CDR-H3": "GRAAGTFDS", "log10 Kd, replicates": "nd nd nd", "control signals": "1/9 (2.68)"}
{"CDR-H1": "GFTVNSYNIS", "CDR-H2": "VIYSDGRRTFYGDYVK", "CDR-H3": "GRAAGTFDS", "log10 Kd, replicates": "nd nd nd", "control signals": "0/9"}
{"CDR-H1": "GFTLNSYGIS", "CDR-H2": "TILSDGRRTFYGDSVK", "CDR-H3": "GRAATTFDS", "log10 Kd, replicates": "3.69 4.62 nd", "control signals": "4/9 (4.40)"}
{"CDR-H1": "GFTLNSRGIS", "CDR-H2": "VIYSDGRRTFYGDSVK", "CDR-H3": "GRAANTFDL", "log10 Kd, replicates": "2.90 nd nd", "control signals": "1/9 (3.34)"}
{"CDR-H1": "QFTLNSYGIS", "CDR-H2": "VIYSDGRRTFYGDSLK", "CDR-H3": "GCAAGTFDS", "log10 Kd, replicates": "nd 3.50 nd", "control signals": "4/9 (3.94)"}
{"CDR-H1": "GFTLGSDGIS", "CDR-H2": "VIYSDGRRTFYGDSVK", "CDR-H3": "GRAFGTFDS", "log10 Kd, replicates": "nd 4.39 nd", "control signals": "0/9"}
{"CDR-H1": "GFHLNSYGIS", "CDR-H2": "VIYSDGRRTFYGDIVK", "CDR-H3": "GRAAGTKDS", "log10 Kd, replicates": "nd nd nd", "control signals": "0/9"}
{"CDR-H1": "GFTLNSNGIS", "CDR-H2": "VIYSDGRFTFFGDSVK", "CDR-H3": "GRAAGTFDS", "log10 Kd, replicates": "nd nd nd", "control signals": "4/9 (3.74)"}
{"CDR-H1": "GFTLNSYGIS", "CDR-H2": "VIYSDGERTFYGDSVK", "CDR-H3": "GFAAGTFDS", "log10 Kd, replicates": "1.17 1.36 1.31", "control signals": "6/9 (4.12)"}
{"CDR-H1": "GFTLNSYGIS", "CDR-H2": "VILSDGRRTFYGDSVK", "CDR-H3": "GRAEGTFIS", "log10 Kd, replicates": "3.51 nd nd", "control signals": "0/9"}
{"CDR-H1": "GFTLNSYGIS", "CDR-H2": "VIYSDGRRTKYGDSVK", "CDR-H3": "GGAAGTFDS", "log10 Kd, replicates": "3.09 4.01 3.95", "control signals": "2/9 (4.10)"}

The last 2 entries again:

CDR-H1,CDR-H2,CDR-H3,"log10 Kd, replicates",control signals
GFTLNSYGIS,VILSDGRRTFYGDSVK,GRAEGTFIS,3.51 nd nd,0/9
GFTLNSYGIS,VIYSDGRRTKYGDSVK,GGAAGTFDS,3.09 4.01 3.95,2/9 (4.10)